This assay addresses T1, apelin receptor (APJ) (Homo sapiens, UniProt P35414).
T1 sequence (P35414 1-380): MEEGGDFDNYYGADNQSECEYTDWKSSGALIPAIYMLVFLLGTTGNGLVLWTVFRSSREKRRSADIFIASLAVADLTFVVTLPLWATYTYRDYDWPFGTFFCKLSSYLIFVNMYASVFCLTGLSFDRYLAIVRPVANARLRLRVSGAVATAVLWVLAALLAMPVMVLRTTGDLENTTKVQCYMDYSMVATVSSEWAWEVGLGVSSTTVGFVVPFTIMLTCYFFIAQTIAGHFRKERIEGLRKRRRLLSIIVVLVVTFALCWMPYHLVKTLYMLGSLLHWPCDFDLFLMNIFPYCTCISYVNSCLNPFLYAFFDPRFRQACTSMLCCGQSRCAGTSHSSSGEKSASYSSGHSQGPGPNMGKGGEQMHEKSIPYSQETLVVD
Put plainly: In vitro apelin agonist activity (methods of Giddings et al., Apelin-13 as positive control). The format is cell-based. The settings on record: read-out: EC50 (nM) Ave. The text has this: Characterization of the Apelin Agonist Activity of the Compounds
1:39-47, the contents of which are hereby incorporated by reference in its entirety. Using the methods described in Giddings et al. and Apelin-13 as a positive control.

Consider one molecule from patent publication US11535630B2, “Apelin receptor (APJ) agonists and uses thereof” (Research Triangle Institute, priority 2015, dated 2022).

The EC50 is the midpoint of the concentration-response curve. Take `COc1cccc(OC)c1-c1cc(C(=O)N[C@@H](CCC2CCCCC2)CC(=O)O)nn1C1CCCCC1` [compound 622, (3S)-5-cyclohexyl-3-{[1-cyclohexyl-5-(2,6-dimethoxyphenyl)-1H-pyrazol-3-yl]formamido}pentanoic acid]: the EC50 came out at 380 nM.
